Laboratory results taken from the supplement of paper PMC10933113.
Structures can show the parent of a compound that is named as a salt. ± gives the uncertainty stated by the source. The entries are a selection whose mix differs from that of the whole data set.

The molecules below were run on THP-1 (assay: CD54 surface expression induction over DMSO control (% over DMSO); higher = stronger dendritic cell activation). Settings: exposure time: 24 h.
Procedure: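 hCLAT-like CD54 and CD86 surface expression on THP1 cells after 24 h exposure at a single concentration (highest non-cytotoxic concentration, or 100-200 µM if not cytotoxic). Flow cytometry (iQue) was run on 5,000 live cells.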

Row | Compound | CD54 surface expression induction
1 | C=CC(=O)OCC(CC)CCCC (configuration not stated) [2-Ethylhexyl acrylate] (200 µM) | -15.4 ± 1
2 | O=[N+]([O-])[O-].[K+] [Potassium nitrate] (199 µM) | -4.85 ± 4.3
3 | CN(C)C(=S)[S-].CN(C)C(=S)[S-].[Zn+2] [Ziram] (10 µM) | -7.44 ± 1.8
4 | Nc1cccc2ccccc12 [1-Naphthylamine] (100 µM) | 33.4 ± 1.5
5 | CCC[CH2][Sn]([Cl])([CH2]CCC)[CH2]CCC [Tributyltin chloride] (10 µM) | 2.99 ± 1.7
6 | CCOC(=S)S [Potassium ethyl xanthate] (200 µM) | 22.9 ± 49
7 | Oc1cccc2cccnc12 [8-Hydroxyquinoline citrate] (10 µM) | -0.29 ± 1.5
